Measurements as given in patent publication US8658697B2 (priority 2004, dated 2014).

Test system: Vero cells

## CC(NC(=O)NNS(=O)(=O)c1ccc(OC(F)F)cc1)(C(F)(F)F)C(F)(F)F [ST-294, N-2-(1,1,1,3,3,3-hexafluoro-1-methylpropyl)-2-[(4-difluoromethoxyphenyl)sulfonyl]hydrazine-1-carboxamide]
  selective index (SI = CC50/EC50): > 416
